Results on four molecules are retold here after patent US9212147B2, “Dihydroxy aromatic heterocyclic compound” (TAKEDA PHARMACEUTICAL COMPANY LIMITED, priority 2011, dated 2015).

pIC50: −log10 of the molar value.

Assay [1] relates to MK-801 (dizocilpine)-induced impaired spontaneous alternation behavior. The note with it: male ddY mice, 0.03-0.1 mg/kg oral administration, MK-801 0.15 mg/kg i.p., Y-maze 8 min.
The target in assay [2] is recombinant human DAAO protein (Homo sapiens (Human), UniProt P14920). Put plainly: DAAO inhibitory activity test (H2O2 production, Amplex red/HRP fluorescence). It counts as biochemical. The note with it: recombinant human DAAO 15 nM, D-alanine substrate, FAD, pH 7.5. How it is done:
The DAAO inhibitory activity was measured by assaying the amount of hydrogen peroxide (H2O2) produced by reacting DAAO protein with flavin adenine dinucleotide (FAD) and D-alanine. The amount of H2O2 was determined by measuring the fluorescence generated on conversion of Amplex red (manufactured by Invitrogen Co.) into resorufin by the reaction of H2O2 with horseradish peroxidase (HRP).
Escherichia coli strain BL21(DE3) (manufactured by Novagen) was transformed with the constructed human DAAO expression vector, inoculated into LB culture medium containing kanamycin at a final concentration of 20 μg/mL, and shake-cultured at 37° C. overnight. The multiplied transformant was inoculated into Terrific Broth containing kanamycin at a final concentration of 20 μg/mL, and shake-cultured at 37° C. until it reached OD600=3.0. Thereafter, the culture was cooled to 30° C., and expression was induced with 1 mM IPTG. After 20 hours, bacterial pellets were recovered by centrifugation.
The bacterial pellets recovered as above were suspended in a lysis buffer (17 mM sodium pyrophosphate buffer pH 8.3, 100 μM FAD, 1 mM sodium benzoate, 1 mM PMSF, 14 mM β-mercaptoethanol, 0.2 mg/mL lysozyme) and the bacteria were fractured by sonication. The sonicated liquid was centrifuged and the supernatant was recovered. To remove the nucleic acid, to this supernatant were sequentially added NaCl (final concentration 0.5M) and 0.05% ethyleneimine (polymer) and, after thorough mixing, the supernatant was recovered by centrifugation. The supernatant was heat treated at 55° C. for 15 min, and the supernatant was recovered by centrifugation. To this supernatant was added 40% saturated ammonium sulfate and, after thorough mixing, the salt precipitate was recovered by centrifugation. The obtained salt precipitate was redissolved in buffer A (50 mM potassium phosphate buffer pH 7.4, 10% glycerol, 200 μM sodium benzoate, 10 μM FAD, 20% saturated ammonium sulfate), and filtered through a 0.22 μm filter (manufactured by Millipore). […]

Assay [3] deals with HEK293 cells that stably express human DAAO (Homo sapiens (Human), UniProt P14920). Nature of the assay: Inhibitory activity test at cellular level using DAAO-expressing cells. It counts as cell-based. The note with it: D-alanine substrate. The method, then:
HEK293 cells that stably express human DAAO were suspended in Cellbanker solution at 5×10^6 cells/ml and cryopreserved at −80° C. At the time of measurement, the cells were centrifuged at 1000 rpm for one min and the Cellbanker solution was removed. […] A 4% DMSO buffer solution (50 mM sodium phosphate [pH 7.5], 0.02% CHAPS) of the test compound (4 μL) was added to a 384-well black, low volume plate, the cell suspension (4 μL) was added, and the mixture was incubated at room temperature for 15 min.
Reverse transcription was performed on human normal kidney tissue-derived RNA (Clontech Corp.) using reverse transcriptase (SuperScriptIII, Life Technologies Corporation) and oligo (dT) primer (Life Technologies Corporation) according to the protocol of the kit (Life Technologies Corporation) and cDNA was synthesized. Then, using human DAAO_HindIII_F represented by Sequence No. 1 and human DAAO_BamHI_R represented by Sequence No. 2, a PCR reaction (35 cycles of 98° C. for 15 sec, 55° C. for 15 sec and 68° C. for 1 min 30 sec) was performed using DNA polymerase (PrimeSTAR, TAKARA BIO INC.) and cDNA obtained as above as a template. […] The PCR product was cloned in a cloning vector (pCR2.1-TOPO Cloning Kit, Life Technologies Corporation). The sequence of the insert was determined by the dideoxy sequence method (BigDye Terminator v3.1 Cycle Sequencing Kit; Life Technologies Corporation).
To express the ORF full length of DAAO as a protein, the above-mentioned vector was subjected to an enzyme reaction with restriction enzymes HindIII and BamHI at 37° C. for 3 hr, and the restriction enzyme-treated DNA fragment was purified. The DNA fragment containing the ORF was cloned to HindIII and BamHI sites present in the multiple cloning site of the expression vector (pcDNA3.1(+): Invitrogen Co.), whereby an expression plasmid (hDAAO/pcDNA3.1) was constructed.
Then, HEK293 cells were transfected to obtain the forced expression cell line. […]

Consider `O=c1[nH]nc(CCc2cc(F)cc(F)c2)cc1O` [Example 24, 6-[2-(3,5-difluorophenyl)ethyl]-4-hydroxypyridazin-3(2H)-one], for which, in assay [1], the “spontaneous alternation rate relative to the Control group” value was “significantly increased”.
Take `COc1cccc(CCc2cc(O)c(=O)[nH]n2)c1` [Example 16]: the pIC50 in assay [2] is 8.68; in assay [3], 8.06.
The corresponding values for `COc1cc(CCc2cc(O)c(=O)[nH]n2)cc(OC)c1` [Example 23] are 7.89 and 7.60.
The matching figures for `COc1ccc(CCc2cc(O)c(=O)[nH]n2)cc1` [Example 14]: 8.54 and 8.00.
